Test results as given in US20250248979A1, “NOVEL GPX4 INHIBITORS AND USES THEREOF” (THE TRUSTEES OF COLUMBIA UNIVERSITY IN THE CITY OF NEW YORK, priority 2022, published 2025).

Target: panel of 44 targets (GPCRs, ion channels, enzymes, transporters, nuclear receptors)
Details: read-out: IC50 (M) Reference Compound (EC50 for agonist)

`CCOC(=O)c1ncn2c1CN(C)C(=O)c1cc(F)ccc1-2` [Flumazenil] was tested, and the IC50 was 1.7e-08 M.
